Measured values reported in publication PMC11324666, “Two novel in vitro assays to screen chemicals for their capacity to inhibit thyroid hormone transmembrane transporter proteins OATP1C1 and OAT4” (Archives of Toxicology, 2024).

Test system: MDCK-OAT4 cells
Assay: CellTiter-Glo luminescent cell viability assay in MDCK-OAT4 cells
Conditions: concentration that inhibits cell viability by 10%, 20 min exposure

## β-Estradiol-3-sulfate [ß-Estrone-3-sulfate]
  Cytotoxicity IC10: > 10 µM
